Assays:
uPAR = uPAR (Homo sapiens, UniProt Q03405); assay: Fluorescence quenching titration of ARM-U2 derivatives with uPAR; conditions: read-out: Kd, solution equilibrium dissociation constant with uPAR; fluorescence titration of 100 nM derivative with increasing uPAR; tested form: ammonium formate salt
Method: Selected ARM-U2 derivatives were assayed for their ability to bind recombinant uPAR using a fluorescence quenching assay. […] Increasing concentrations of recombinant uPAR were mixed with each compound containing aliquot and the fluorescence of the solution measured following 1 h equilibration times. […] To confirm that the observation of uPAR dependent fluorescence quenching was indeed due to specific binding to uPAR and to validate ARM-U2 binding to uPAR specifically via the uPA binding site, a direct binding ELISA assay was developed. In this assay, clear 96-well high-binding plates from CoStar, were loaded with 100 μl/well of 50 nM recombinant uPAR 807-UK-100-CF from R&D systems prepared from a 100 μg/ml (approx. 2.1 μM) stock of uPAR in PBS and left overnight at room temperature to equilibrate. […] The absorbance at 450 nm was measured using an in-house Perkin-Elmer fluorescence plate reader.
All ARM-U2 derivatives were assessed for their ability to bind selectively to recombinant uPAR in vitro using a competitive ELISA binding assay. […] Selective binding to uPAR by ARM-U2 at the uPA binding site competes with uPAR-uPA binding which is required for a positive UV 450 nm absorbance signal. Increasing concentrations of ARM-U2 displace increasing amounts of uPAR from uPA which is detected by anti-uPAR/biotin labeled antibodies followed by avidin-HRP. […]

By UniProt entry, the sequences of proteins in these tests, tags left out. Residues count along the entry.
UniProt Q03405, 23-305 limits assumed: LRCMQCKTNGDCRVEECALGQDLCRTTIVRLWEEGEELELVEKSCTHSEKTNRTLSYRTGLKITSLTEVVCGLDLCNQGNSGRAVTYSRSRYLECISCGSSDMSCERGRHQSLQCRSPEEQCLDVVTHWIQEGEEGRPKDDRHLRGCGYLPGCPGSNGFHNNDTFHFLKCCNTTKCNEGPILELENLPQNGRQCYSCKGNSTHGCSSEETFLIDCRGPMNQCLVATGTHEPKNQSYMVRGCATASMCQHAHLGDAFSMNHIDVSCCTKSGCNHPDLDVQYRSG

[1] = system: B16 melanoma tumors expressing human uPAR; assay: B16 mouse melanoma allograft model expressing human uPAR; format: in vivo; conditions: tested form: ammonium formate salt

O=C1c2ccccc2-c2onc3c(N4CCC[C@H](C(=O)NCCCOCCOCCOCCCNc5ccc([N+](=O)[O-])cc5[N+](=O)[O-])C4)cc(Nc4ccc(S(=O)(=O)O)cc4S(=O)(=O)O)c1c23
Kd (uPAR): 8.7 nM | average tumor volume after 17 days ([1]; IP injections over 17 days): approximately 200 mm^3 | mean survival ([1]; daily IP treatment): 30 days | tumor growth inhibition (TGI) ([1]; daily IP, ARM-U2 20 mpk or 100 mpk, Dox 1 mpk, vs PBS): approximately 90% | efficacy of 100 mpk dose compared to 20 mpk ([1]; especially within the first 22 days): moderate decrease in efficacy | persistence of tumor regression after treatment cessation ([1]; mouse, in vivo): 14 days

Source: patent US10633374B2, “Small molecule based antibody-recruiting compounds for cancer treatment” (YALE UNIVERSITY, priority 2015, dated 2020)
